# Data published in PMC10969092, “Characterization of Lysophospholipase D Activity in Mammalian Cell Membranes” (Cells, 2024).
# Tested on: lyso-PLD
# Assay: In vitro membrane lyso-PLD assay (B-lyso-PC substrate, B-LPA product)
# Format: biochemical, rat
# Settings: varying concentrations; qualitative experiments; cell line not stated
row,Substance,Stimulation of lyso-PLD activity
1,CaCl2,did not stimulate lyso-PLD activity
2,CoCl2,did not stimulate lyso-PLD activity
